Experimental data published in ChEMBL document CHEMBL1125331, “6-Hydroxy-3-n-propyl-2,3,4,5-tetrahydro-1H-3-benzazepine and analogs: new centrally acting 5-HT1A receptor agonists” (J Med Chem, 1992).

The chains behind the UniProt entries cited, without tags or fusion partners.
UniProt P19327, whole entry: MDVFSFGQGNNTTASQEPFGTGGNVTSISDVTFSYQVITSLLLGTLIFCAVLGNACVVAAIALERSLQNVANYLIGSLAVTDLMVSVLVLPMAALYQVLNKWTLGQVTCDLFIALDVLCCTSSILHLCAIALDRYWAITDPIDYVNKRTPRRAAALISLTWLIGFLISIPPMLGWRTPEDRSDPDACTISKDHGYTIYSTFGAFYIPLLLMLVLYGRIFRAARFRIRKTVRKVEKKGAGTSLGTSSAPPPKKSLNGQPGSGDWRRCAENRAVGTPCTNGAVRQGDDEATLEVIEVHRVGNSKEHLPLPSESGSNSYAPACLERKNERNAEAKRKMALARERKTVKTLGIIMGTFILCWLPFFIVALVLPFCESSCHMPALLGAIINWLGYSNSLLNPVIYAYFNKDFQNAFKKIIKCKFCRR
UniProt P61169, whole entry: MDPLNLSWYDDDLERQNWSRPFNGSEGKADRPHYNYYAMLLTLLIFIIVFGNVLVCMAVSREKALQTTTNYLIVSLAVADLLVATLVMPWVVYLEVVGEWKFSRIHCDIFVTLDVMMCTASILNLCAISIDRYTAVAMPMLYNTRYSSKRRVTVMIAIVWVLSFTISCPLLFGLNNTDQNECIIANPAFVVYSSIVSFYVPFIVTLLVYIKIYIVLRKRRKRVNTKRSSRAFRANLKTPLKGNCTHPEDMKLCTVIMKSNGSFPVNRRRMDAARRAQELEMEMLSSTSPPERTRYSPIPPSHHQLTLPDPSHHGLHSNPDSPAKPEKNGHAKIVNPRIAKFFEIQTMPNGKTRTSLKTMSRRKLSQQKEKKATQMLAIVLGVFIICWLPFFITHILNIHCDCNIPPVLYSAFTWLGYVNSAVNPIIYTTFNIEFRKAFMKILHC

Experiments:
[1] = molecular target: 5-hydroxytryptamine receptor 1A (Rattus norvegicus, UniProt P19327); assay: Inhibitory activity against 5-hydroxytryptamine 1A receptor in rats, using [3H]8-OH-DPAT as radioligand
Method in brief: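 Rat whole-brain membranes (minus brainstem and cerebellum) in 50 mM Tris pH 8.0 with 120 mM NaCl, 4 mM CaCl2, 4 mM MgCl2 and 10 μM pargyline. Rapid filtration, then scintillation counting. Nonspecific binding defined with 10 μM 5-HT. IC50 by semi-log plot and linear regression.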

D(2) dopamine receptor = D(2) dopamine receptor (Rattus norvegicus, UniProt P61169); assay: Inhibitory activity against Dopamine receptor D2 in rats using [3H]spiperone as radioligand
Method in brief: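 Rat striatal membranes in 50 mM potassium phosphate buffer pH 7.4 were incubated with 0.5 nM [3H]spiperone for 10 min at 37 °C. Specific binding was defined with 10 μM 6,7-ADTN.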

With `CN1CCc2cccc(O)c2CC1` the IC50 [1] was 1.5 µM and the IC50 (D(2) dopamine receptor) was 15 µM.
